{
  "source": "patent US8895281B2",
  "about": "“Method for preparing a site-specific physiologically active polypeptide conjugate” (Hanmi Science Co., Ltd, priority 2009, dated 2014)",
  "molecular_target": "GLP-1 receptor (CHO/GLP-1R cell line)",
  "assay": "cell-based or functional assay",
  "data": [
    {"substance": "CA-exendin-4-PEG (Lys12) (peptide)", "values": [
      {"measurement": "In-vitro activity (%) (cAMP in CHO/GLP-1R cells, EC50 values compared)", "value": 2.1, "unit": "%"}
    ]},
    {"substance": "CA-exendin-4-PEG (Lys27) (peptide)", "values": [
      {"measurement": "In-vitro activity (%) (cAMP in CHO/GLP-1R cells, EC50 values compared)", "value": 8.5, "unit": "%"}
    ]},
    {"substance": "imidazo-acetyl-exendin-4 (CA-exendin-4, Bachem, U.S.) (peptide)", "values": [
      {"measurement": "In-vitro activity (%) (cAMP in CHO/GLP-1R cells, EC50 values compared)", "value": 77, "unit": "%"}
    ]}
  ]
}
